According to PMC5173035, “Biochemical and structural characterization of a DNA N^6-adenine methyltransferase from Helicobacter pylori” (Oncotarget, 2016):

Tests used:
[1] = target: T1, M1.HpyAVI (Helicobacter pylori, UniProt O24891); assay: microscale thermophoresis, fluorescently labelled protein, unlabelled AdoMet; assay type: binding
T1 construct: gene HP_0050; full-length, C-terminal His-tag (pET22b), expressed in E. coli with chaperone plasmid PG-KJE8; dimer of 54 kDa; beta-class MTase
T1 sequence (O24891 1-232): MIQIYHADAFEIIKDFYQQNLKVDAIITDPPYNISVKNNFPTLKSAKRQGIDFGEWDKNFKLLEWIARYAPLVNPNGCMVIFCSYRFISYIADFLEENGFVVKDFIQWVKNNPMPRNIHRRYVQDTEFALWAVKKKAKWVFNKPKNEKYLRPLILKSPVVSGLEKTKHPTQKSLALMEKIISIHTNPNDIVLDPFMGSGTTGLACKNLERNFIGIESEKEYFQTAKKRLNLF

[2] = target: T2, M1.HpyAVI (Helicobacter pylori, UniProt O24891, S198A); assay: biochemical
T2 construct: gene HP_0050

[3] = target: T3, M1.HpyAVI (Helicobacter pylori, UniProt O24891, G199A); assay: biochemical
T3 construct: gene HP_0050

[4] = target: T4, M1.HpyAVI (Helicobacter pylori, UniProt O24891, M196A); assay: biochemical
T4 construct: gene HP_0050

[5] = target: T5, M1.HpyAVI (Helicobacter pylori, UniProt O24891, H168A); assay: biochemical
T5 construct: gene HP_0050

[6] = target: T6, M1.HpyAVI (Helicobacter pylori, UniProt O24891, T200A); assay: biochemical
T6 construct: gene HP_0050

[7] = target: T7, M1.HpyAVI (Helicobacter pylori, UniProt O24891, D8A); assay: biochemical
T7 construct: gene HP_0050

Compound: C[S+](CC[C@H](N)C(=O)O)C[C@H]1O[C@@H](n2cnc3c(N)ncnc32)[C@H](O)[C@@H]1O (stereo partly shown) [AdoMet]
- Kd [1]: 41 ± 6 µM
- Kd [2]: 242 ± 32 µM
- Kd [3]: 38 ± 6 µM
- Kd [4]: 46 ± 11 µM
- Kd [5]: 471 ± 51 µM
- Kd [6]: 252 ± 28 µM
- Kd [7]: 212 ± 11 µM
